# Like-named read-outs stand apart in the source and are kept apart here.
# The chains behind the UniProt entries cited, without tags or fusion partners.
# UniProt P10415, whole entry: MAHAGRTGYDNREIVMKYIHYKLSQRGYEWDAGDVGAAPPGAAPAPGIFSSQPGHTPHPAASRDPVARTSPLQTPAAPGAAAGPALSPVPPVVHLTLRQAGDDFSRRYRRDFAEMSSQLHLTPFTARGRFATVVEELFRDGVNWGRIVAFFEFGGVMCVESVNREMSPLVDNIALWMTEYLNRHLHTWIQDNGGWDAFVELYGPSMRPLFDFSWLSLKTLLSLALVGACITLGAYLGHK
# UniProt Q07817, whole entry: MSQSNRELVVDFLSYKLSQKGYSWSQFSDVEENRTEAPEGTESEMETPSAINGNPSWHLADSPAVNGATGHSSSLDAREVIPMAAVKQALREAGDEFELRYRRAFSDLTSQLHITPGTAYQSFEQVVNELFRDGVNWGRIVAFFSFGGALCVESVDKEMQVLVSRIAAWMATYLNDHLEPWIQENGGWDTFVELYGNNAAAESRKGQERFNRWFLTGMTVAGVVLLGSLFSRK
# Legend:
# Bcl-2 = Bcl-2 (Homo sapiens, UniProt P10415); experiment: Bcl-2 binding affinity analysis (fluorescence polarization binding assay); settings: read-out: Bcl-2 binding affinity Ki
# Source text: (§1) Bcl-2 and Bcl-xL binding can be determined using a variety of known methods. One such assay is a sensitive and quantitative in vitro binding assay using fluorescence polarization (FP) described by Wang, J. -L.; Zhang, Z -J.; Choksi, S.; Sjam. S.; Lu, Z.; Croce, C. M.; Alnenri, E. S.; Komgold, R.; Huang, Z. Cell permeable Bcl-2 binding peptides: a chemical approach to apoptosis induction in tumor cells. Cancer Res. 2000, 60, 1498-1502).
# (§2) Bcl-2 and Bcl-xL binding affinity analysis data is presented below for various compounds of the invention.
# Bcl-xL = Bcl-xL (Homo sapiens, UniProt Q07817); experiment: Bcl-xL binding affinity analysis (fluorescence polarization binding assay); set-up: scale not given here
# Source text: as §1, §2
# [1] = test system: Human Pancreatic Cancer Cell Line Panc1; experiment: Cell death assay (propidium iodide/Hoechst) in Panc1 cells with or without camptothecin
# Experimental: (§3) When RL-cells are exposed to isoxazolidine compounds of the present invention, the inhibitors show a dose-dependent cell-killing in the Alamar blue cytoxicity assay with IC50 values of from about 100 μM to about 1 μM (See Examples). When Panc1 cells are exposed to the isoxazolidine compounds of the present invention in combination with camptothecin, the inhibitors show a synergistic dose-dependent cell killing in the propidium iodide exclusion cell survival assay with IC50 values of from about 100 μM to about 1 μM (See Examples).
# • 1) Compounds were serially diluted in DMSO from a 9 mM stock to a final concentration of 0.004 mM in a 96 well plate. • 2) Assay plates were prepared by diluting compounds 310 fold into 150 ul of medium containing 10,000 cells/well, with or without 3 uM Camptothecin, resulting in a final DMSO concentration of 0.3% and a compound concentration range from 29 uM to […] for each compound. • 3) Assay plates were incubated at 37 C, 5% CO2 for 72 hours. • 4) After 72 hours, propidium iodide and Hoechst dye were added to each well according to manufacturer's instruction. • 5) Plates were imaged on a fluorescence microscope at wavelengths Ex560/Em650 (Propidium iodide) and Ex360/Em465 (Hoechst) • 6) MetaMorph imaging software was used to determine % cell death by dividing the number of propidium iodide stained cells (dead cells) by the number of Hoechst stained cells (all cells), multipled by 100, in each field.
# Panc1 invitro cellular data is presented below for various compounds of the invention.
# [2] = test system: RL Human Follicular Lymphoma Cell Line; experiment: Alamar blue cytotoxicity assay in RL cells; settings: read-out: Bcl RL Alamar Blue IC50, 72 h incubation
# Experimental: as §3
# • 1) Using 96 well plates, compounds were serially diluted in DMSO from 9 mM to 4 uM • 2) Assay plates were prepared by diluting samples 310 fold into 150 ul of medium containing 30,000 cells/well resulting in a final DMSO concentration of 0.3% and a concentration range from 29 uM to 0.013 uM for each compound. • 3) Plates were incubated at 37 C and 5% CO2 for 72 h • 4) After 72 h, Alamar blue reagent was added to each well and plates read according to manufacturer's instructions
# In vitro cytotoxicity data for RL cells is presented below for various compounds of the invention.
# [3] = read-out: Panc1 + Cpt IC50, with 3 uM Camptothecin, 72 hours, % cell death by propidium iodide/Hoechst
# [4] = read-out: Panc1 − Cpt IC50, without camptothecin, 72 hours, % cell death by propidium iodide/Hoechst
Structure (SMILES),Ki (Bcl-2) [µM],Bcl-XL binding affinity Ki (Bcl-xL),"IC50 [1, 3] [µM]","IC50 [1, 4] [µM]",IC50 [2] [µM]
C[C@@H](O)[C@H]1[C@@H](CO)ON(Cc2cccc(C#CCNC(=O)c3ccccc3)c2)[C@H]1C(=O)N[C@@H]1CCN(Cc2ccccc2)C1,0.8 to 6,♯,,,
C[C@@H](O)[C@H]1[C@@H](CO)ON(Cc2cccc(C#CCNC(=O)c3ccccc3)c2)[C@H]1C(=O)NCCCN(C)c1ccccc1,0.8 to 6,♯♯,,,
C[C@@H]1[C@@H](NC(=O)[C@@H]2[C@H]([C@H](C)O)[C@H](CO)ON2CCCCN(CCN(C)C)CC2CCCCC2)C[C@H]2C[C@@H]1C2(C)C [Compound 553],0.8 to 6,♯,,,
C[C@@H]1[C@@H](NC(=O)[C@@H]2C([C@H](C)O)[C@H](CO)ON2Cc2cccc(CN(CCN(C)C)CC3CCCCC3)c2)C[C@H]2C[C@@H]1C2(C)C (some centres unmarked),< 0.8,♯,,,
C[C@@H]1[C@@H](NC(=O)[C@@H]2[C@H]([C@H](C)O)[C@H](CO)ON2Cc2cccc(CN(Cc3ccccc3Cl)[C@H](CN(C)C)C(C)(C)C)c2)C[C@H]2C[C@@H]1C2(C)C,< 0.8,♯,> 2.5,> 2.5,
CCOc1c(CN2O[C@@H](CO)[C@H]([C@H](C)O)[C@H]2C(=O)N[C@H]2C[C@H]3C[C@@H]([C@@H]2C)C3(C)C)cccc1-c1cccc(C(=O)NC[C@@H]2CCCN2CC)c1,< 0.8,♯,> 2.5,> 2.5,
C[C@@H]1[C@@H](NC(=O)[C@@H]2C([C@H](C)O)[C@H](CO)ON2Cc2cccc(CNCCN(C)C)c2)C[C@H]2C[C@@H]1C2(C)C (some centres unmarked),< 0.8,♯,,,
C[C@@H]1[C@@H](NC(=O)[C@@H]2[C@H]([C@H](C)O)[C@H](CO)ON2Cc2cccc(CN(CCN(C)C)Cc3ccc(N(C)C)cc3)c2)C[C@H]2C[C@@H]1C2(C)C,< 0.8,♯,,,> 5
CC(C)[C@H](CN(C)C)N(Cc1ccccc1)Cc1cccc(CN2O[C@@H](CO)[C@@H]([C@H](C)O)[C@H]2C(=O)N[C@H]2C[C@H]3C[C@@H]([C@@H]2C)C3(C)C)c1,< 0.8,♯,> 2.5,> 2.5,> 5
C[C@@H]1[C@@H](NC(=O)[C@@H]2[C@H]([C@H](C)O)[C@H](CO)ON2Cc2cccc(-c3ccc([S+](C)[O-])cc3)c2)C[C@H]2C[C@@H]1C2(C)C (some centres unmarked),< 0.8,♯♯,,,
C[C@@H]1[C@@H](NC(=O)[C@@H]2C([C@H](C)O)[C@H](CO)ON2Cc2cccc(CN(CCN(C)C)CC(C)(C)C)c2)C[C@H]2C[C@@H]1C2(C)C (some centres unmarked),< 0.8,♯,,,
"COc1c(CN2OC(CO)C(C(C)O)C2C(=O)NC2CC3CC(C2C)C3(C)C)cccc1-c1cccc(C(=O)NC(CC(C)C)CN(C)C)c1 (single isomer, unassigned) [485]",< 0.8,♯,1.3 to 1.8,1.8 to 2.5,2 to 5
CC(C)C[C@@H](CN(C)C)NCc1cccc(CN2O[C@@H](CO)C([C@H](C)O)[C@H]2C(=O)N[C@H]2C[C@H]3C[C@@H]([C@@H]2C)C3(C)C)c1 (some centres unmarked) [Compound 552],< 0.8,♯,,,
C[C@@H]1[C@@H](NC(=O)[C@@H]2C([C@H](C)O)[C@H](CO)ON2Cc2cccc(CN(CCN(C)C)Cc3ccccc3)c2)C[C@H]2C[C@@H]1C2(C)C (some centres unmarked),< 0.8,♯,,,
C[C@@H]1[C@@H](NC(=O)[C@@H]2C([C@H](C)O)[C@H](CO)ON2Cc2cccc(CN(CCCc3ccccc3)CCN(C)C)c2)C[C@H]2C[C@@H]1C2(C)C (some centres unmarked),< 0.8,♯,,,

# Continued, in another order:
Ki (Bcl-2) [µM],Bcl-XL binding affinity Ki (Bcl-xL),Structure (SMILES),"IC50 [1, 3] [µM]","IC50 [1, 4] [µM]",IC50 [2] [µM]
< 0.8,♯,CCN1CCC[C@H]1CNC(=O)c1cccc(-c2cccc(CN3O[C@@H](CO)[C@H]([C@H](C)O)[C@H]3C(=O)N[C@H]3C[C@H]4C[C@@H]([C@@H]3C)C4(C)C)c2OC)c1,,,
< 0.8,♯,CCN1CCC[C@H]1CNC(=O)c1cccc(-c2cccc(CN3O[C@@H](CO)[C@H]([C@H](C)O)[C@H]3C(=O)N[C@H]3C[C@H]4C[C@@H]([C@@H]3C)C4(C)C)c2OCC2CC2)c1,> 2.5,> 2.5,
< 0.8,♯,C[C@@H]1[C@@H](NC(=O)[C@@H]2C([C@H](C)O)[C@H](CO)ON2Cc2cccc(CN(CCN(C)C)CCN(C)C)c2)C[C@H]2C[C@@H]1C2(C)C (some centres unmarked),,,
< 0.8,♯,"CC(c1cccc(-c2ccc(C(=O)N(C)C)cc2)c1)N1O[C@@H](CO)[C@@H]([C@H](C)O)[C@H]1C(=O)N[C@H]1C[C@H]2C[C@@H]([C@@H]1C)C2(C)C (single isomer, unassigned)",,,
< 0.8,♯,CC[C@@H](C)[C@@H](CN(C)C)N(Cc1cccc(CN2O[C@@H](CO)[C@@H]([C@H](C)O)[C@H]2C(=O)N[C@H]2C[C@H]3C[C@@H]([C@@H]2C)C3(C)C)c1)Cc1ccccc1Cl,> 2.5,> 2.5,
< 0.8,♯,C[C@@H]1[C@@H](NC(=O)[C@@H]2C([C@H](C)O)[C@H](CO)ON2Cc2cccc(CN(CCN(C)C)CCC(C)(C)C)c2)C[C@H]2C[C@@H]1C2(C)C (some centres unmarked),,,
< 0.8,♯,C[C@@H]1[C@@H](NC(=O)[C@@H]2C([C@H](C)O)[C@H](CO)ON2Cc2cccc(CN(CCc3ccccc3)CCN(C)C)c2)C[C@H]2C[C@@H]1C2(C)C (some centres unmarked),1.3 to 1.8,1.8 to 2.5,2 to 5
< 0.8,♯,C[C@@H]1[C@@H](NC(=O)[C@@H]2[C@H]([C@H](C)O)[C@H](CO)ON2Cc2cccc(CN(CCN(C)C)CC3CCOCC3)c2)C[C@H]2C[C@@H]1C2(C)C,,,
< 0.8,♯,C[C@@H]1[C@@H](NC(=O)[C@@H]2[C@H]([C@H](C)O)[C@H](CO)ON2Cc2cccc(CN(CCN(C)C)Cc3cccc(C=O)c3)c2)C[C@H]2C[C@@H]1C2(C)C,,,
< 0.8,♯,C[C@@H]1[C@@H](NC(=O)[C@@H]2C([C@H](C)O)[C@H](CO)ON2Cc2cccc(CN(CCN(C)C)C3CCCCC3)c2)C[C@H]2C[C@@H]1C2(C)C (some centres unmarked),,,
< 0.8,♯,CC(C)C[C@H](CN(C)C)NCc1cccc(CN2O[C@@H](CO)C([C@H](C)O)[C@H]2C(=O)N[C@H]2C[C@H]3C[C@@H]([C@@H]2C)C3(C)C)c1 (some centres unmarked),,,
< 0.8,♯,CNC(=S)N1CCN(c2cccc(CN3O[C@@H](CO)[C@@H]([C@H](C)O)[C@H]3C(=O)N[C@H]3C[C@H]4C[C@@H]([C@@H]3C)C4(C)C)c2)CC1,,,
< 0.8,♯,C[C@@H]1[C@@H](NC(=O)[C@@H]2[C@H]([C@H](C)O)[C@H](CO)ON2Cc2cccc(CN(CCN(C)C)CC3CC4CCC3C4)c2)C[C@H]2C[C@@H]1C2(C)C (some centres unmarked),,,2 to 5
< 0.8,♯,"COc1c(CN2OC(CO)C(C(C)O)C2C(=O)NC2CC3CC(C2C)C3(C)C)cccc1-c1cccc(C(=O)NC(CC(C)C)CN(C)C)c1 (single isomer, unassigned) [478]",> 2.5,> 2.5,
< 0.8,♯,COc1c(CN2OC(CO)C(C(C)O)C2C(=O)NC2CC3CC(C2C)C3(C)C)cccc1-c1cccc(C(=O)NCCN(C)C)c1 (centres unmarked),,,
< 0.8,♯,C[C@@H]1[C@@H](NC(=O)[C@@H]2[C@H]([C@H](C)O)[C@H](CO)ON2Cc2cccc(N(CCCc3ccccc3)CCCN(C)C)c2)C[C@H]2C[C@@H]1C2(C)C,> 2.5,> 2.5,2 to 5

# Source: patent publication US7851637B2, “Compounds and methods for inhibiting the interaction of BCL proteins with binding partners” (Infinity Pharmaceuticals, Inc., priority 2004, dated 2010)
